Laboratory results reported in ChEMBL document CHEMBL5036353, “Discovery of Pyrazolo[3,4-d]pyridazinone Derivatives as Selective DDR1 Inhibitors via Deep Learning Based Design, Synthesis, and Biological Evaluation” (J Med Chem, 2022).

Sequences of proteins named here, by UniProt entry; tags and fusion partners are left off. A change or cut given only in a name is not applied to a line headed by its entry.
UniProt Q08345: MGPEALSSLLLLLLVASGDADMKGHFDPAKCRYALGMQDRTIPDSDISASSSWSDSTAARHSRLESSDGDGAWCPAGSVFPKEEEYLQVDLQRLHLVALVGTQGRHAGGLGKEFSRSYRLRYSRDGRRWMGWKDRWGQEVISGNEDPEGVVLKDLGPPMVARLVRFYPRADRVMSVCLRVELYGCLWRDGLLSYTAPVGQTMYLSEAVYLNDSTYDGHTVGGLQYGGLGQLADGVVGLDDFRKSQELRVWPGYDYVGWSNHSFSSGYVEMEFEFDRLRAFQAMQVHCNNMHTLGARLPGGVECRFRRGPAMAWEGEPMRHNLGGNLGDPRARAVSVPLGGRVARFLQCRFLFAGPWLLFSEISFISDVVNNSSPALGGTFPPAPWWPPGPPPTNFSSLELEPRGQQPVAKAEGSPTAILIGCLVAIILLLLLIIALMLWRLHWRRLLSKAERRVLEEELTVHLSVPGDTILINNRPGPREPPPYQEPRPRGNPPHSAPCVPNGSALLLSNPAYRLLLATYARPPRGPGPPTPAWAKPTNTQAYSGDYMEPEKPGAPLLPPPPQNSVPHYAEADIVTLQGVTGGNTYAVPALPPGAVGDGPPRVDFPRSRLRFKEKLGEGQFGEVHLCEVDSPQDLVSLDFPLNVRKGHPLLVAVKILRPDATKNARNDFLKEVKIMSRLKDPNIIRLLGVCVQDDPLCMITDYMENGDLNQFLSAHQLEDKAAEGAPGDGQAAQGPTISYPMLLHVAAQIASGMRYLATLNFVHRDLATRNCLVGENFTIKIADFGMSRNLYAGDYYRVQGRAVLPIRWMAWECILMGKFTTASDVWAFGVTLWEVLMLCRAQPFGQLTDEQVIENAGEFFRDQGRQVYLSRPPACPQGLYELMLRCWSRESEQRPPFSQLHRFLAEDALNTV

Target: Epithelial discoidin domain-containing receptor 1 (Homo sapiens) (UniProt Q08345)
Test: Inhibition of DDR1 (unknown origin) at 0.1 uM relative to control

- inhibition: 48%
SMILES: Cc1c(-c2c3c(N)n[nH]c(=O)c3nn2-c2ccccc2)oc2ccccc12
